Reference: patent EP0612845A2 (priority 1993, dated 1994)

Chains of the proteins cited; added tags and fusions are not shown.
UniProt P33535, whole entry, looked up: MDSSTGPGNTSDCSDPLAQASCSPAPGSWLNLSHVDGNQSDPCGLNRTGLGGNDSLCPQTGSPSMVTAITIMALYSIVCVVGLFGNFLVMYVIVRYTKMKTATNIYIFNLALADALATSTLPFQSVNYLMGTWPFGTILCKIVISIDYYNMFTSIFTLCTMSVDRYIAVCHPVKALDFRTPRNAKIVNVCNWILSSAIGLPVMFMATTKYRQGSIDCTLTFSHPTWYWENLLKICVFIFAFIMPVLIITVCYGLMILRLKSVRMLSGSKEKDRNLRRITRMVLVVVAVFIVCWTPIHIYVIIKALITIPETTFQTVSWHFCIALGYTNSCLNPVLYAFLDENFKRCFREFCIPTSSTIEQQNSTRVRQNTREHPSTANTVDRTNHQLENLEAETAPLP

Tests used:
[1] = target: T1, m-opiate receptor (mOR) cDNA RC8-1 expressed in COS cells (Rattus norvegicus, UniProt P33535); details: membranes of COS cells expressing RC8-1
[2] = target: T1, m-opiate receptor (mOR) cDNA RC8-1 expressed in COS cells; assay: Displacement of [3H]DAMGO binding from membranes of COS cells expressing RC8-1

## CN(C(=O)Cc1ccccc1)C1CCC2(CCCO2)CC1N1CCCC1 (centres unmarked)
[1]
  specific recognition of the radioligand: no appreciable specific recognition
[2]
  potency in displacing binding of [³H]DAMGO: substantially less potency
